Consider 2 compounds from patent publication US10669272B2, “Substituted naphthyridinone compounds useful as T cell activators” (BRISTOL-MYERS SQUIBB COMPANY, priority 2018, dated 2020).

Sequences of proteins named here, by UniProt entry; tags and fusion partners are left off. A line that says so, or that is headed by a name, gives the form on record, which may keep a tag or linker. Residues count along the entry.
UniProt P23743, 1-735 with tags or gaps: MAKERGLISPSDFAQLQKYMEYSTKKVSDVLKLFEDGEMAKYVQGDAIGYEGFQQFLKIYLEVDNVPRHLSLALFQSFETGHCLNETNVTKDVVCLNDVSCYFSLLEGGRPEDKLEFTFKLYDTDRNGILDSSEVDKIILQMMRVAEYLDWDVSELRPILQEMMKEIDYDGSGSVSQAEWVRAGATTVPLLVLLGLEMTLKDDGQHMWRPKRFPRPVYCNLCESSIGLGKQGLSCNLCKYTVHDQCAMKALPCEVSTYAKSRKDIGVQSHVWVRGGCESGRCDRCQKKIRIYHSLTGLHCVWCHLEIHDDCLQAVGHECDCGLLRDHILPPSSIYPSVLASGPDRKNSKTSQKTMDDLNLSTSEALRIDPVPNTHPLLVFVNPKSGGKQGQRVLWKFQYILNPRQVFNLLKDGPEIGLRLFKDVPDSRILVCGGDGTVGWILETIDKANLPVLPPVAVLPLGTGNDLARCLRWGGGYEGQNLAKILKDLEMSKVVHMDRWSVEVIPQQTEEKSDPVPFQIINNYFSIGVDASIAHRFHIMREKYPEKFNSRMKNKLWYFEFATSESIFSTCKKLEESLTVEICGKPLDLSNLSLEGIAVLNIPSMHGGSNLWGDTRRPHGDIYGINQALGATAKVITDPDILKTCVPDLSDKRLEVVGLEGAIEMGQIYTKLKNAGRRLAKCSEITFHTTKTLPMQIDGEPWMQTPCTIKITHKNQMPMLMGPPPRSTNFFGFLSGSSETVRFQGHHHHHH
UniProt Q13574, 1-929 with tags or gaps isoform 4: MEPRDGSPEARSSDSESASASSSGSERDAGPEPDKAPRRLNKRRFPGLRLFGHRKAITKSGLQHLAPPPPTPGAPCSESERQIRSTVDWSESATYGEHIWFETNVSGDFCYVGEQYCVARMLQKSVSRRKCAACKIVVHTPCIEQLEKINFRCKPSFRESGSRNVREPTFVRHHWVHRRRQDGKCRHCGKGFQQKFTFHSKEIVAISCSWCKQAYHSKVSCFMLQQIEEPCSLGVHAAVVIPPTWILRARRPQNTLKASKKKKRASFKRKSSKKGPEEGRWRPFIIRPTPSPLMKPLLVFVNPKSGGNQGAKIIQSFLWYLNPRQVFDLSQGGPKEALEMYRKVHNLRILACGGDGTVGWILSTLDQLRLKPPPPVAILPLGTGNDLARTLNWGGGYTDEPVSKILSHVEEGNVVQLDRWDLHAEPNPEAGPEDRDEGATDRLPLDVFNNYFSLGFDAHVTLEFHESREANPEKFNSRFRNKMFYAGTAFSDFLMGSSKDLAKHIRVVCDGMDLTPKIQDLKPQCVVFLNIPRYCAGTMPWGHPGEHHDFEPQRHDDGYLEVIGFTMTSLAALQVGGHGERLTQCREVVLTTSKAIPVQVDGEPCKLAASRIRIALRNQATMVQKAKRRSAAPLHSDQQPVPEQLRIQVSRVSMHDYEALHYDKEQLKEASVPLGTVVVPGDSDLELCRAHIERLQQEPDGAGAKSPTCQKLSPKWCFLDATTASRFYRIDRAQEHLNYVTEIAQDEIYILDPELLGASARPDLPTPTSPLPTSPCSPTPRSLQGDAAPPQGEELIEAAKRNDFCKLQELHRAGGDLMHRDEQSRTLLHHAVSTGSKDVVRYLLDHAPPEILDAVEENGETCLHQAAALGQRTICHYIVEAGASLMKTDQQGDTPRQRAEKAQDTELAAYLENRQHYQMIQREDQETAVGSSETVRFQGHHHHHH

In one test the target is human DGKα (Homo sapiens, UniProt P23743). Description: DGKα LIPGLO assay (extruded liposome substrate), in vitro DGK inhibition. Particulars: read-out: DGKa LIPGLO IC50.
A further test concerns the target human DGKζ (Homo sapiens, UniProt Q13574). In words: DGKζ LIPGLO assay (extruded liposome substrate), in vitro DGK inhibition. Conditions: read-out: DGKz LIPGLO IC50.
The test system of a further test is Human venous whole blood. Description: Human whole blood IFN-γ assay.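 Note: blood from healthy donors exposed to compound for 1 h before stimulation with anti-CD3 and anti-CD28 at 1 µg/mL each, IFN-γ quantified in supernatant by AlphaLISA.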 The class given is cell-based. Conditions: read-out: INFg Whole Blood Normalized Agonist EC50, normalized to 3 μM reference compound with anti-CD3 plus anti-CD28 as 100% activation.

The IC50 is the concentration that gives 50% inhibition. What is called EC50 is the concentration that produces a half-maximal response.

In the case of `COc1cc(F)c(C(C)N2C[C@H](C)N(c3cc(=O)n(C)c4ccc(C#N)nc34)C[C@H]2C)c(F)c1` (stereo partly drawn) [Example 1242], the values for the IC50 at human DGKα and on human DGKζ were 2.7 µM and 0.25 µM, respectively. In addition, the EC50 in the test with Human venous whole blood was 3.8 µM.

On to `COc1cc(F)c(C(C)N2C[C@H](C)N(c3cc(=O)n(C)c4ccc(C#N)nc34)C[C@H]2C)cc1F` (stereo partly drawn) [Example 1244], for which the IC50 came out at 4.1 µM on human DGKα and 1.4 µM at human DGKζ. Further, in the test on Human venous whole blood, the EC50 was 4.9 µM.
